In ChEMBL document CHEMBL3259751, “A rational design strategy of the novel topoisomerase II inhibitors for the synthesis of the 4-O-(2-pyrazinecarboxylic)-4'-demethylepipodophyllotoxin with antitumor activity by diminishing the relaxation reaction of topoisomerase II-DNA decatenation” (Bioorg Med Chem, 2014):

Experiments:
Assay type in all cases: functional, cell-based
HepG2 = assay: Cytotoxicity against human HepG2 cells after 48 hrs by MTT assay
How it was run: (§1)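 Cells seeded at 3500–13,000 per well. A549, HeLa and HepG2 were grown in DMEM and BGC-823 in RPMI 1640, each with 10% CS plus penicillin/streptomycin, at 37 °C and 5% CO₂. Drug exposure lasted 2 days, followed by MTT readout at A₄₉₂, with untreated controls at 0.6–0.8. IC50 was the concentration cutting absorbance by 50%, interpolated by sigmoidal nonlinear regression. Run in triplicate.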

A549 = assay: Cytotoxicity against human A549 cells after 48 hrs by MTT assay; how it was run: as §1
HeLa = assay: Cytotoxicity against human HeLa cells after 48 hrs by MTT assay; how it was run: as §1
BGC-823 = assay: Cytotoxicity against human BGC823 cells after 48 hrs by MTT assay; how it was run: as §1

Measured: Activity

COc1cc([C@@H]2c3cc4c(cc3[C@@H](OC(=O)Cn3cnc5c3c(=O)n(C)c(=O)n5C)[C@H]3COC(=O)[C@H]23)OCO4)cc(OC)c1O
active: HepG2 = Dose-dependent effect | A549 = Dose-dependent effect | HeLa Dose-dependent effect | BGC-823 = Dose-dependent effect

COc1cc([C@@H]2c3cc4c(cc3[C@@H](NC(=O)c3cc(O)c(O)c(O)c3)[C@H]3COC(=O)[C@H]23)OCO4)cc(OC)c1O
active: HepG2 = Dose-dependent effect | A549 = Dose-dependent effect | HeLa Dose-dependent effect | BGC-823 = Dose-dependent effect

COc1cc([C@@H]2c3cc4c(cc3[C@@H](NC(=O)c3cnccn3)[C@H]3COC(=O)[C@H]23)OCO4)cc(OC)c1O
active: HepG2 = Dose-dependent effect | A549 = Dose-dependent effect | HeLa Dose-dependent effect | BGC-823 = Dose-dependent effect

COc1cc([C@@H]2c3cc4c(cc3[C@@H](NC(=O)Cn3cnc5c3c(=O)n(C)c(=O)n5C)[C@H]3COC(=O)[C@H]23)OCO4)cc(OC)c1O
active: HepG2 = Dose-dependent effect | A549 = Dose-dependent effect | HeLa Dose-dependent effect | BGC-823 = Dose-dependent effect

COc1cc([C@@H]2c3cc4c(cc3[C@@H](OC(=O)c3cnc(C)cn3)[C@H]3COC(=O)[C@H]23)OCO4)cc(OC)c1O
active: HepG2 = Dose-dependent effect | A549 = Dose-dependent effect | HeLa Dose-dependent effect | BGC-823 = Dose-dependent effect

COc1cc([C@@H]2c3cc4c(cc3[C@@H](OC(=O)c3ccc5ccccc5n3)[C@H]3COC(=O)[C@H]23)OCO4)cc(OC)c1O
active: HepG2 = Dose-dependent effect | A549 = Dose-dependent effect | HeLa Dose-dependent effect | BGC-823 = Dose-dependent effect

COc1cc([C@@H]2c3cc4c(cc3[C@@H](OC(=O)c3cn(C5CC5)c5cc(Cl)c(F)cc5c3=O)[C@H]3COC(=O)[C@H]23)OCO4)cc(OC)c1O
active: HepG2 = Dose-dependent effect | A549 = Dose-dependent effect | HeLa Dose-dependent effect | BGC-823 = Dose-dependent effect

COc1cc([C@@H]2c3cc4c(cc3[C@@H](OC(=O)c3cnccn3)[C@H]3COC(=O)[C@H]23)OCO4)cc(OC)c1O
active: HepG2 = Dose-dependent effect | A549 = Dose-dependent effect | HeLa Dose-dependent effect | BGC-823 = Dose-dependent effect

COc1cc([C@@H]2c3cc4c(cc3[C@@H](NC(=O)c3cnc(C)cn3)[C@H]3COC(=O)[C@H]23)OCO4)cc(OC)c1O
active: HepG2 = Dose-dependent effect | A549 = Dose-dependent effect | HeLa Dose-dependent effect | BGC-823 = Dose-dependent effect
